In series [1] the test system is NCI-N87 cells with acquired resistance to T-DM1. Particulars: T-DM1 resistant NCI-N87 cell line, FIG. 26A right panel. The protocol: (§1) A panel of human cancer cell lines expressing various levels of HER2 was used to evaluate the cytotoxic activity of bispecific ADC (Table 5 in Example 1). Briefly, cells were harvested, resuspended, and plated in serum-containing culture media at a density of 5,000 to 20,000 per well (depending on the growth kinetics of each cell line) of 96-well plates in a volume of 100 μL. A 2× concentration of each dose of antibody or ADC to be tested was prepared by diluting the test articles in culture medium. One hundred microliters of each test article was added to cells in triplicate such that the final dose curve ranged from 5 nM down to 0.08 pM in a stepwise 1:4 serial dilution series. The treated cells were incubated at 37° C./5% CO2 for 3 to 4 days, depending on the growth kinetics of each particular cell line. Cell viability was determined using Cell Titer Glo according to manufacturer's instructions. Data are analyzed by the GraphPad Prism software and presented as percent growth inhibition relative to the untreated control. EC50 values were determined using Sigmoidal non-linear regression analysis with GraphPad Prism software and were summarized in Table 6.

Another series relates to NCI-N87. Conditions: parental NCI-N87 cells, FIG. 26A left panel. The protocol:
as §1

The subject of the next series is ZR-75-1. Put plainly: In vitro cytotoxic activity (Cell Titer Glo). The format is cell-based, human. Particulars: ZR-75-1 cells, FIG. 19. Background: ATP-based viability assays read luminescence as a measure of living cells.
The next series has as its system JIMT-1. Put plainly: In vitro cytotoxic activity (Cell Titer Glo). Conditions: JIMT-1 cells, FIG. 18. The format is cell-based, human.

On to T-DM1 [reference compound], for which the “cytotoxic activity (in words)” value was “lost the activity” in series [1], “active” in the series on NCI-N87, “no or limited cytotoxic activity” with ZR-75-1 and “no activity” with JIMT-1.

(Values after patent US10160812B2, “Bispecific HER2 antibodies” (MedImmune, LLC, priority 2014, dated 2018).)
